Test results as given in patent EP0938471B1, “THE PREPARATION AND USE OF ORTHO-SULFONAMIDO ARYL HYDROXAMIC ACIDS AS MATRIX METALLOPROTEINASE AND TACE INHIBITORS” (priority 1996, dated 1998).
Where a name gives a salt, the structure may show the parent alone. Read-outs that look alike come from different tables or passages of the source.

Protein sequences, listed by entry. Tags and fused reporters are not part of them. Residues count along the entry.
UniProt P14780, 94-707: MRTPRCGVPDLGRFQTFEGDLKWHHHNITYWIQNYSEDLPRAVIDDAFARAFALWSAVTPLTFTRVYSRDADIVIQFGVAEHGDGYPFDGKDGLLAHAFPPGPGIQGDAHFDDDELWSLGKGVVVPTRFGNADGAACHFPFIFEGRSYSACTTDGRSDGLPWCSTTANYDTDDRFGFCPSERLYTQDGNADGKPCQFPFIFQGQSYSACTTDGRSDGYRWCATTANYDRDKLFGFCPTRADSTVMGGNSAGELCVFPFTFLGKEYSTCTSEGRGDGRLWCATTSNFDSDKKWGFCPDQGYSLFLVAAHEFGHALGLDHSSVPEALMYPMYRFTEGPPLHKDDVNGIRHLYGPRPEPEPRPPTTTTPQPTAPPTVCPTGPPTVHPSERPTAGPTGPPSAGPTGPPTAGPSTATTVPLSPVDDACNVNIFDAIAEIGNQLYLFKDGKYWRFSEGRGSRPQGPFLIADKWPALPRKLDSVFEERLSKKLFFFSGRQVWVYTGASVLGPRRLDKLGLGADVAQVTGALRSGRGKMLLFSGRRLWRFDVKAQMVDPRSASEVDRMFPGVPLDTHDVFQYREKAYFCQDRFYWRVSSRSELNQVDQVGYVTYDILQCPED
UniProt P78536, 215-824: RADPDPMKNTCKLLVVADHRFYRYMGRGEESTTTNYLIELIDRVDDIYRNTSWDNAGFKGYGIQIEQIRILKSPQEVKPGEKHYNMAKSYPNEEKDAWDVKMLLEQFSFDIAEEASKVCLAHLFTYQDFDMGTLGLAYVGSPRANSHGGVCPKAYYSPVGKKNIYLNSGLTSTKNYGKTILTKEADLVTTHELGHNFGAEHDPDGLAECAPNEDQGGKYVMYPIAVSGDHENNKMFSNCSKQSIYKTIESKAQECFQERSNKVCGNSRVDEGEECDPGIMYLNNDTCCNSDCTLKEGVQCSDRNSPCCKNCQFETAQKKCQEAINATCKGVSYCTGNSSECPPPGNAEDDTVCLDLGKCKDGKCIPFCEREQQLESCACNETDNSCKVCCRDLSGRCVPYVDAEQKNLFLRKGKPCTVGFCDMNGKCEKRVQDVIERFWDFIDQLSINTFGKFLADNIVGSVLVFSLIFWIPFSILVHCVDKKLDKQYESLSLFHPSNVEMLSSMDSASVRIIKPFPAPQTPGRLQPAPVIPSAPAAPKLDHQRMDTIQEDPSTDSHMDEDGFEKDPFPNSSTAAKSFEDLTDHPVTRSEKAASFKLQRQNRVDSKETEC

Key:
Format in all cases: biochemical
MMP-9 = MMP-9 (Homo sapiens, UniProt P14780); test: MMP-9 inhibition (thiopeptide or fluorescent peptide substrate assay)
MMP-13 = MMP-13 (Homo sapiens, UniProt P45452); test: MMP-13 inhibition (thiopeptide or fluorescent peptide substrate assay); conditions: read-out: MMP-13 IC50
MMP-1 = target: T1, MMP-1 (Homo sapiens, UniProt P03956); test: MMP-1 inhibition (thiopeptide or fluorescent peptide substrate assay)
T1 sequence (P03956 100-469): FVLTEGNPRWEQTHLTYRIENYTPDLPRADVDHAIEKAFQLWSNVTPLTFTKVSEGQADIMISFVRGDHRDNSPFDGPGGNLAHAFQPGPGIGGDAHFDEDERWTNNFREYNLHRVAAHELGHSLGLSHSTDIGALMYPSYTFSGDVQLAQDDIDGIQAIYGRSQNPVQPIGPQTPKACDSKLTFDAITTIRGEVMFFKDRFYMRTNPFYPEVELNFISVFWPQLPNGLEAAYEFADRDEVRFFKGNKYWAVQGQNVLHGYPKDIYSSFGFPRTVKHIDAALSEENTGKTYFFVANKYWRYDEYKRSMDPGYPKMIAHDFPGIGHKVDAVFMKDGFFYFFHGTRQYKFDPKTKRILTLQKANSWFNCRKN

TACE = TACE (Homo sapiens, UniProt P78536); test: TACE inhibition (fluorescent peptidyl substrate)

Compound	IC50 (MMP-9)	IC50 (MMP-13)	also measured
COc1ccc(S(=O)(=O)N(Cc2cccnc2)c2c(C)cccc2C(=O)NO)cc1 [Example 61, N-Hydroxy-2-[(4-methoxy-benzenesulfonyl)-pyridin-3-ylmethyl-amino]-3-methyl-benzamide]	34 nM		
COc1ccc(S(=O)(=O)N(Cc2cccnc2)c2c(C)cccc2C(=O)NO)cc1 [Example 83, N-Hydroxy-2-[(4-methoxy-benzenesulfonyl)-pyridin-3-ylmethyl-amino]-3-methyl-benzamide]	34 nM	32 nM	
COc1ccc(S(=O)(=O)N(Cc2ccccc2)c2c(C)cc(C(=O)NO)cc2C(=O)NO)cc1 [Example 272, 4-[Benzyl-(4-methoxy-benzenesulfonyl)-amino]-N(1),N(3)-dihydroxy-5-methyl-isophthalamide di-sodium salt]	0.5 nM	6 nM	IC50 (MMP-1; read-out: MMP-1 IC50): 66 nM; IC50 (TACE): 311 nM
COc1ccc(S(=O)(=O)N(Cc2ccc(N3CCN(C)CC3)cc2)c2c(C)cccc2C(=O)NO)cc1 [Example 382, N-Hydroxy-2-{(4-methoxy-benzenesulfonyl)-[4-(4-methyl-piperazin-1-yl)-benzyl]-amino}-3-methyl-benzamide]			IC50 (MMP-1): 142 nM
COc1ccc(S(=O)(=O)N(Cc2cccnc2)c2c(C)cc(-c3ccccc3)cc2C(=O)NO)cc1 [Example 397, 4-[(4-Methoxy-benzenesulfonyl)-pyridin-3-ylmethyl-amino]-5-methyl-biphenyl-3-carboxylic acid hydroxyamide hydrochloride salt]		3.7 nM	
COc1ccc(S(=O)(=O)N(Cc2cccnc2)c2c(C)cc(-c3ccsc3)cc2C(=O)NO)cc1 [Example 398, N-Hydroxy-2-[(4-methoxy-benzenesulfonyl)-pyridin-3-ylmethyl-amino]-3-methyl-5-thiophen-3-yl-benzamide hydrochloride salt]		3.7 nM	
